{"sequences": {"note": "Chains of the proteins cited; added tags and fusions are not shown. Residues count along the entry.", "UniProt Q03431, 27-593": "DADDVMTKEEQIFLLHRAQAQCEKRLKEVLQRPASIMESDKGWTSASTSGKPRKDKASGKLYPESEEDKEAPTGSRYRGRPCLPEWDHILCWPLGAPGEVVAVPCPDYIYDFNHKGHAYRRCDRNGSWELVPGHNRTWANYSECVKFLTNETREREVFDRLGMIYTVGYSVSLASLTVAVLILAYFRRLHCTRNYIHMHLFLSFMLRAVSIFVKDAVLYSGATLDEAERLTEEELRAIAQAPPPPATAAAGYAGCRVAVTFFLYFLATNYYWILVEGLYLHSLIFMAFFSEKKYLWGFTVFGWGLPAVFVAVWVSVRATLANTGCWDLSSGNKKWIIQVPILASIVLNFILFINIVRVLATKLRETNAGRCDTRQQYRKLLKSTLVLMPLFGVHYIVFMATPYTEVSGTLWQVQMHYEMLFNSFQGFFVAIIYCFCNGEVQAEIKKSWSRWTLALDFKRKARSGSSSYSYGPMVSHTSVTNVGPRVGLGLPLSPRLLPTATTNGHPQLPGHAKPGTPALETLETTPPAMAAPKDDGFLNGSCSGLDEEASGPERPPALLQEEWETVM"}, "source": "patent US20160184287A1", "target": "PTHrP receptor (human) (UniProt Q03431)", "test": "radioligand binding assay (fmol per 90 min per mg protein), nicotine-treated vs. control, n=6"}
{"substance": "[125I]-Tyr34-PTHrP-(1-34) (from UniProt P12272 37-70) (peptide)", "values": [{"measurement": "decrease in PTHrP binding to its receptor after nicotine treatment vs. control", "value": 30, "unit": "%"}]}
